Test results from paper PMC6979384, “Characterization of the plant homeodomain (PHD) reader family for their histone tail interactions” (Epigenetics & Chromatin, 2020).

Assays:
Assay in all cases: Histone peptide microarray
Type in all cases: binding, human
[1] = tested on: KDM5A (1); conditions: sheet "Array Heatmap"; GST-tagged KDM5A (1); arrays performed twice, total replicate number n = 4
Description: (§1) To more comprehensively define the histone interactions of the 31 PHD readers identified from the domain microarray analyses, we probed each on an alternate microarray platform containing a library of 293 synthetic histone peptides with single or combinatorial PTMs (Additional file 2: Figure S4 and Additional file 3: Table S2). […] In general, the 31 PHD fingers were confirmed to associate with the H3 tail with the same H3K4 methyl preferences as in the domain microarrays (Fig. 2; Additional file 3: Table S2). […] In addition, we confirmed the newly identified interactions observed with the domain microarrays for PHRF1 and TRIM66 (Fig. 2).
(§2) The 31 GST-tagged PHD readers identified in the PHD finger domain array were expressed and purified as previously. Histone peptide arrays and peptide pulldown assays were conducted as recently described (specifically, the optimized protocol from Petell et al. for the former).
(§3) Supplementary file 13072_2020_328_MOESM3_ESM.xlsx: Additional file 3: Table S2. Histone Peptide Microarray Results. Excel Tab Peptide List is a compiled list of the entire 293 histone peptide library with amino acid sequence ranges. Excel Tab Peptide Array Grid Map is a table representing the pattern in which peptides have been printed for the peptide microarray. Each number corresponds to the peptide number designated in Peptide List. Excel Tab Average Signals is a compiled set of binding data: chromatin reader at 0.5 μM vs. entire 293 peptide library. Data is presented as the average and standard deviation of 4 replicates. The average signals are colored to indicate signal intensity with green being strong and white being weak/low. […] Key: red= stronger relative binding; blue = weaker relative binding. Excel Tab Array info summary is a table summarizing the domains, sequence coverage, array signal range, and noise for each of the GST-tagged readers assayed on the peptide microarrays.

[2] = tested on: KDM5A (3); conditions: sheet "Array Heatmap"; GST-tagged KDM5A (3); arrays performed twice, total replicate number n = 4
Description: as §1, §2, §3

[3] = tested on: KDM5B (3); conditions: sheet "Array Heatmap"; GST-tagged KDM5B (3); arrays performed twice, total replicate number n = 4
Description: as §1, §2, §3

[4] = tested on: KDM7A; conditions: sheet "Array Heatmap"; GST-tagged KDM7A; arrays performed twice, total replicate number n = 4
Description: as §1, §2, §3

[5] = tested on: MLL5; conditions: sheet "Array Heatmap"; GST-tagged MLL5; arrays performed twice, total replicate number n = 4
Description: as §1, §2, §3

[6] = tested on: MORC3 (CW); conditions: sheet "Array Heatmap"; GST-tagged MORC3 (CW); arrays performed twice, total replicate number n = 4
Description: as §1, §2, §3

[7] = tested on: PHF13; conditions: sheet "Array Heatmap"; GST-tagged PHF13; arrays performed twice, total replicate number n = 4
Description: as §1, §2, §3

[8] = tested on: PHF21A; conditions: sheet "Array Heatmap"; GST-tagged PHF21A; arrays performed twice, total replicate number n = 4
Description: as §1, §2, §3

[9] = tested on: PHF23; conditions: sheet "Array Heatmap"; GST-tagged PHF23; arrays performed twice, total replicate number n = 4
Description: as §1, §2, §3

[10] = tested on: PHF2; conditions: sheet "Array Heatmap"; GST-tagged PHF2; arrays performed twice, total replicate number n = 4
Description: as §1, §2, §3

[11] = tested on: PHF8; conditions: sheet "Array Heatmap"; GST-tagged PHF8; arrays performed twice, total replicate number n = 4
Description: as §1, §2, §3

[12] = tested on: PHRF1 (RP); conditions: sheet "Array Heatmap"; GST-tagged PHRF1 (RP); arrays performed twice, total replicate number n = 4
Description: as §1, §2, §3

[13] = tested on: RAG2; conditions: sheet "Array Heatmap"; GST-tagged RAG2; arrays performed twice, total replicate number n = 4
Description: as §1, §2, §3

[14] = tested on: SP140L; conditions: sheet "Array Heatmap"; GST-tagged SP140L; arrays performed twice, total replicate number n = 4
Description: as §1, §2, §3

[15] = tested on: TAF3; conditions: sheet "Array Heatmap"; GST-tagged TAF3; arrays performed twice, total replicate number n = 4
Description: as §1, §2, §3

[16] = tested on: TRIM66 (PB); conditions: sheet "Array Heatmap"; GST-tagged TRIM66 (PB); arrays performed twice, total replicate number n = 4
Description: as §1, §2, §3

H3K4me1 + K9me2: H3 1-15
Array Heatmap signal, KDM5A (1) [1]: 0.3964
Array Heatmap signal, KDM5A (3) [2]: 0.6108
Array Heatmap signal, KDM5B (3) [3]: 0.4913
Array Heatmap signal, KDM7A [4]: 0.3418
Array Heatmap signal, MLL5 [5]: 0.5361
Array Heatmap signal, MORC3 (CW) [6]: 0.6065
Array Heatmap signal, PHF13 [7]: 0.5162
Array Heatmap signal, PHF21A [8]: 0.4036
Array Heatmap signal, PHF23 [9]: 0.5514
Array Heatmap signal, PHF2 [10]: 0.5256
Array Heatmap signal, PHF8 [11]: 0.3768
Array Heatmap signal, PHRF1 (RP) [12]: 0.4947
Array Heatmap signal, RAG2 [13]: 0.2965
Array Heatmap signal, SP140L [14]: 0.3258
Array Heatmap signal, TAF3 [15]: 0.2656
Array Heatmap signal, TRIM66 (PB) [16]: 0.5105
